AlphaSeq binding of Ab-14 heavy chain variants to a spike HR2 peptide

Target peptide (SARS-CoV-2 spike, HR2 region): PDVDLGDISGINAS

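Phage display of a naive human antibody library on the peptide gave the parent. Variants in AAYL49 differ from the parent at up to three CDR positions; double and triple changes were sampled at random. AlphaSeq pools MATa yeast showing the antibodies with MATalpha yeast showing the peptide. Pairs that bind mate more often; barcode pairs of the diploids are counted by sequencing. Each replicate has its own calibration line, from reference interactions of the BCL2 family. The assay was run in three technical replicates.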

The variants keep the light chain, the linker and the frameworks of Ab-14 (scFv order VH, a (GGGGS)3 linker, VL).
VH: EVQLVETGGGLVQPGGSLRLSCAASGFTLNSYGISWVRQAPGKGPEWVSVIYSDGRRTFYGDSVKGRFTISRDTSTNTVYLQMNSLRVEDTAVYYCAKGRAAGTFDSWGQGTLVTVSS
VL: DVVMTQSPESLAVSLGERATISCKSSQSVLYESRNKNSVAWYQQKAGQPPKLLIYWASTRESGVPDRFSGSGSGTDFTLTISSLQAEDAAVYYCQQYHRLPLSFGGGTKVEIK

Positions count from residue 1 of the parent VH; S31M puts M in place of S. All variants listed here change S31 of the VH, counted from its first residue. Each Kd is an estimate from the mating assay, the geometric mean of the replicates in which the pair was seen; lower is stronger. Where no diploid with the target was found in any replicate, the entry reads "no signal": below detection, most likely a poor binder, though not proof of it.

With S31M A101Y A102G the result was 80 nM (3 of 3 replicates; controls 1 of 9). The variant S31P F59D S63Q showed 1.8 µM (1 of 3 replicates; controls 0 of 9). The variant S31Y D54L D62C showed no signal (0 of 3 replicates; controls 0 of 9). The variant S31F R56K T104K gave 12 µM (3 of 3 replicates; controls 5 of 9). For S31D S35W K65T, the assay gave no signal (0 of 3 replicates; controls 0 of 9). For T28Y S31C D106Y, the assay gave 24 nM (3 of 3 replicates; controls 1 of 9).

The variant S31K S53F R57Y gave no signal (0 of 3 replicates; controls 0 of 9). The variant S31C G99Y D106H gave no signal (0 of 3 replicates; controls 2 of 9). With S31V F59C G99A the result was 1.9 µM (2 of 3 replicates; controls 0 of 9). The variant F27E S31K gave 5.4 nM (3 of 3 replicates; controls 3 of 9). The variant S31H D54P R56Q showed no signal (0 of 3 replicates; controls 0 of 9). The variant S31C D62W G99E showed no signal (0 of 3 replicates; controls 0 of 9).

For S31I S35P F105M, the assay gave 130 µM (1 of 3 replicates; controls 3 of 9). The variant S31M Y60D gave 170 µM (1 of 3 replicates; controls 1 of 9). The variant G26Y S31A S107P showed 19 µM (2 of 3 replicates; controls 3 of 9). For F27T S31F A102I, the assay gave no signal (0 of 3 replicates; controls 1 of 9). The variant T28K S31F S63E showed 720 nM (3 of 3 replicates; controls 1 of 9). The variant S31W S53T D62W showed no signal (0 of 3 replicates; controls 0 of 9).

For S31Y T58V G99H, the assay gave no signal (0 of 3 replicates; controls 2 of 9). For N30G S31D I51W, the assay gave 27 µM (1 of 3 replicates; controls 2 of 9). The variant S31Y D54R G99R showed 67 µM (2 of 3 replicates; controls 3 of 9). For G26Y N30I S31E, the assay gave 460 nM (3 of 3 replicates; controls 5 of 9). The variant S31T Y60L G61P showed 2.0 µM (2 of 3 replicates; controls 0 of 9). With S31W R57D F59S the result was no signal (0 of 3 replicates; controls 0 of 9).

The variant T28P S31Q V50P showed no signal (0 of 3 replicates; controls 0 of 9). For S31Y I51S R100A, the assay gave 14 µM (3 of 3 replicates; controls 3 of 9). For S31F Y60Q D62A, the assay gave 16 µM (2 of 3 replicates; controls 3 of 9). The variant S31Y G33S Y60E showed no signal (0 of 3 replicates; controls 0 of 9). The variant S31K R57Y S107D gave 4.9 µM (1 of 3 replicates; controls 3 of 9). With S31I G33P V64T the result was 51 µM (2 of 3 replicates; controls 4 of 9).

From the list, the first 5 with no signal in any replicate:

For S31Y D54L D62C, the assay gave no signal (0 of 3 replicates; controls 0 of 9).
For S31D S35W K65T, the assay gave no signal (0 of 3 replicates; controls 0 of 9).
For S31K S53F R57Y, the assay gave no signal (0 of 3 replicates; controls 0 of 9).
For S31C G99Y D106H, the assay gave no signal (0 of 3 replicates; controls 2 of 9).
For S31H D54P R56Q, the assay gave no signal (0 of 3 replicates; controls 0 of 9).

Empty control strains, which show no peptide, gave a signal in 15% of pairings with library AAYL49; the median was 11 µM and 95% of these signals were weaker than 680 nM. No background was subtracted. For each scFv, signals with the empty controls are counted beside the result. For reference, the parent read 4.4 nM as the reference entry and 13 µM (one replicate of three) as a member of this library.

From the AlphaSeq antibody data of Engelhart et al. 2022 (doi:10.1038/s41597-022-01779-4), copy in the FLAb collection.